ChEMBL document CHEMBL4390676, “Discovery of Bisubstrate Inhibitors for Protein N-Terminal Methyltransferase 1” (J Med Chem, 2019)

How the values were obtained:
Homo sapiens [1] = species: Homo sapiens; experiment: Selectivity ratio of IC50 for human His-tagged NNMT (1 to 264 residues) expressed in Escherichia coli BL21(DE3) to IC50 for recombinant human full-length His6-tagged NTMT1 (1 to 222 residues) expressed in Escherichia coli BL21-CodonPlus(DE3)-RIL competent cells
[2] = Selectivity ratio of IC50 for Trypanosoma brucei N-terminal His6-tagged PRMT7 expressed in Escherichia coli BL21-CodonPlus(DE3)-RIL to IC50 for recombinant human full-length His6-tagged NTMT1 (1 to 222 residues) expressed in Escherichia coli BL21-CodonPlus(DE3)-RIL competent cells
Homo sapiens [3] = species: Homo sapiens; experiment: Selectivity ratio of IC50 for SAHH (unknown origin) to IC50 for recombinant human full-length His6-tagged NTMT1 (1 to 222 residues) expressed in Escherichia coli BL21-CodonPlus(DE3)-RIL competent cells
Homo sapiens [4] = species: Homo sapiens; experiment: Selectivity ratio of IC50 for human His-tagged SETD7 (1 to 366 residues) expressed in Escherichia coli to IC50 for recombinant human full-length His6-tagged NTMT1 (1 to 222 residues) expressed in Escherichia coli BL21-CodonPlus(DE3)-RIL competent cells
Homo sapiens [5] = species: Homo sapiens; experiment: Selectivity ratio of IC50 for human His-tagged G9a (913 to 1193 residues) expressed in Escherichia coli BL21-CodonPlus(DE3)-RIL to IC50 for recombinant human full-length His6-tagged NTMT1 (1 to 222 residues) expressed in Escherichia coli BL21-CodonPlus(DE3)-RIL competent cells
[6] = Selectivity ratio of IC50 for rat His6-tagged PRMT1 expressed in Escherichia coli BL21(DE3) to IC50 for recombinant human full-length His6-tagged NTMT1 (1 to 222 residues) expressed in Escherichia coli BL21-CodonPlus(DE3)-RIL competent cells

`CC[C@H](C)[C@H](NC(=O)[C@H](CCCNC(=N)N)NC(=O)[C@H](CCCCN)NC(=O)[C@@H]1CCCN1C(=O)[C@@H]1CCCN1CCCN(CC[C@H](N)C(=O)O)C[C@H]1O[C@@H](n2cnc3c(N)ncnc32)[C@H](O)[C@@H]1O)C(=O)N[C@@H](C)C(N)=O` gave a Ratio IC50 (Homo sapiens [1]) of over 600, a Ratio IC50 [2] of over 100 and a Ratio IC50 (Homo sapiens [3]) of over 100. It also gave a Ratio IC50 (Homo sapiens [4]) of over 600, a Ratio IC50 (Homo sapiens [5]) of over 600 and a Ratio IC50 [6] of 200.
